# Experimental data published in patent publication EP0854927B1.
# Target: G-actin (UniProt P68135)
# Assay: actin binding ELISA: G-actin captured on GC globulin-coated wells, bound DNase I detected with anti-human DNase I polyclonal antibody-HRP
row,EC50 [nM],Substance
1,0.087,native human DNase I (enzyme)
2,0.067,"Pulmozyme® human DNase I (Genentech, Inc.) (enzyme)"
